# Vapor pressure values, as collected for the OPERA models

Values as listed in the OPERA 2.9 repository of K. Mansouri.

Vapor pressures (log10 mmHg) refer to near room temperature, 15 to 30 °C; higher is more volatile. "via" names the databases from which the curators took the value.

CCN(C)C [N,N-Dimethylethylamine] is reported with log VP 2.691 (log10 mmHg) (via eChemPortal).
CCO[Si](C)(CCl)OCC [(Chloromethyl)(diethoxy)methylsilane] is reported with log VP 1.276 (log10 mmHg) (via eChemPortal).
O=C=Nc1ccc(Cl)c(C(F)(F)F)c1 [4-Chloro-3-(trifluoromethyl)phenyl isocyanate] is reported with log VP -0.034 (log10 mmHg) (via eChemPortal).
C=C(C)C(=O)OCCOCCOCCOCCOC(=O)C(=C)C [Tetraethyleneglycol dimethacrylate] is reported with log VP -5.603 (log10 mmHg) (via eChemPortal).
CC(C)CCCCCCCOC(=O)CC(C)CC(C)(C)C (centres undefined) [Hexanoic acid, 3,5,5-trimethyl-, isodecyl ester] is reported with log VP -3.813 (log10 mmHg) (via eChemPortal).
COCC(F)(F)C(F)F [1,1,2,2-tetrafluoro-3-methoxypropane] is reported with log VP 2.022 (log10 mmHg) (via ICF).
Brc1cc(Br)c(Br)cc1Br [1,2,4,5-Tetrabromobenzene] is reported with log VP -2.924 (log10 mmHg) (via OCHEM).
CCCCCCCCCCCCOC(=O)CCSCCC(=O)OCCCCCCCCCCCC [Propanoic acid, 3,3'-thiobis-, didodecyl ester] is reported with log VP -6.312 (log10 mmHg) (via eChemPortal).
NC(=O)c1ccccc1N [2-Aminobenzamide] is reported with log VP -5.171 (log10 mmHg) (via eChemPortal).
O=C1CC[C@@H](C(=O)O)N1 [Pidolic acid] is reported with log VP -4.028 (log10 mmHg) (via eChemPortal).
CCCCCCCCCCCCCCCCCC(=O)NCCCN(C)CCCNC(=O)CCCCCCCCCCCCCCCCC [Octadecanamide, N,N'-[(methylimino)di-3,1-propanediyl]bis-] is reported with log VP -7.887 (log10 mmHg) (via eChemPortal).
C#CCC(O[Si](CC)(CC)CC)[Si](CC)(CC)CC (centres undefined) [Triethyl{[1-(triethylsilyl)but-3-yn-1-yl]oxy}silane] is reported with log VP -2.853 (log10 mmHg) (via eChemPortal).
CCCCCCCC/C=C\CCCCCCCC(=O)NCCCCCCCC/C=C/CCCCCCCC [9-Octadecenamide, N-(9Z)-9-octadecen-1-yl-, (9Z)-] is reported with log VP -6.206 (log10 mmHg) (via eChemPortal).
O=C([O-])[C@H](O)[C@@H](O)C(=O)[O-].[NH4+].[NH4+] [Diammonium L-(+)-tartrate] is reported with log VP -5.084 (log10 mmHg) (via eChemPortal).
CCNc1nc(=O)nc(NC(C)(C)C)[nH]1 [Hydroxyterbuthylazine] is reported with log VP -8.244 (log10 mmHg) (via OCHEM).
COc1cc(Cl)c(Cl)c(Cl)c1Cl is reported with log VP -2.045 (log10 mmHg) (via OCHEM).
CO[Si](OC)(OC)OC [Tetramethyl orthosilicate] is reported with log VP 1.13 (log10 mmHg) (via eChemPortal).
Cc1cscn1 [4-Methylthiazole] is reported with log VP 0.934 (log10 mmHg) (via OCHEM).
CCCCCC1C(=O)CCC1CC(=O)OC (centres undefined) [Methyl dihydrojasmonate] is reported with log VP -2.802 (log10 mmHg) (via eChemPortal).
Clc1cc(-c2c(Cl)cccc2Cl)c(Cl)c(Cl)c1Cl [2,2',3,4,5,6'-Hexachlorobiphenyl] is reported with log VP -4.425 (log10 mmHg) (via OCHEM).
CC(C)(C)c1cc(CCC(=O)NCCCCCCNC(=O)CCc2cc(C(C)(C)C)c(O)c(C(C)(C)C)c2)cc(C(C)(C)C)c1O [Antioxidant 1098] is reported with log VP -13 (log10 mmHg) (via eChemPortal).
CCCCN(CCO)CCCC [2-N-Dibutylaminoethanol] is reported with log VP -1 (log10 mmHg) (via PubChem, eChemPortal).
COc1ccc(C)cc1 [1-Methoxy-4-methylbenzene] is reported with log VP -0.026 (log10 mmHg) (via eChemPortal).
FC(F)(F)c1nc2c(Cl)c(Cl)ccc2[nH]1 [Chlorflurazole] is reported with log VP -4.398 (log10 mmHg) (via PubChem).
C=CC(=O)OCCOCCOCCOCCOC(=O)C=C [Tetraethylene glycol diacrylate] is reported with log VP -5.806 (log10 mmHg) (via eChemPortal).
COc1ccc(Cl)c(OC)c1O [3-Chloro-2,6-dimethoxyphenol] is reported with log VP -2.205 (log10 mmHg) (via OCHEM).
C=C[C@@](C)(O)/C=C/C=C(\C)CCC=C(C)C [(3R,4E,6E)-3,7,11-Trimethyldodeca-1,4,6,10-tetraen-3-ol] is reported with log VP -2.824 (log10 mmHg) (via eChemPortal).
OCc1cccnc1 [Nicotinyl alcohol] is reported with log VP -2.487 (log10 mmHg) (via eChemPortal).
FC(F)(F)COC(F)(F)C(F)(F)C(F)(F)F [1,1,1,2,2,3,3-Heptafluoro-3-(2,2,2-trifluoroethoxy)propane] is reported with log VP 2.424 (log10 mmHg) (via ICF).
COc1cc(C=O)c(Cl)c(OC)c1O [2-Chlorosyringaldehyde] is reported with log VP -3.225 (log10 mmHg) (via OCHEM).
CC(C)CC(C)OC(=O)/C=C\C(=O)OC(C)CC(C)C (stereo partly drawn) [Bis(1,3-dimethylbutyl) maleate] is reported with log VP -1.385 (log10 mmHg) (via eChemPortal).
Clc1cccc(-c2c(Cl)c(Cl)c(Cl)c(Cl)c2Cl)c1 [2,3,3',4,5,6-Hexachlorobiphenyl] is reported with log VP -5.005 (log10 mmHg) (via OCHEM).
N#Cc1ccccc1O [2-Hydroxybenzonitrile] is reported with log VP -2.894 (log10 mmHg) (via eChemPortal).
C=C(C#N)C(=O)OCC [Ethyl cyanoacrylate] is reported with log VP -0.656 (log10 mmHg) (via OFMPub, eChemPortal).
Oc1cc2c(cc1O)[C@H]1c3ccc(O)c(O)c3OC[C@@]1(O)C2 [Hematoxylin] is reported with log VP -6.619 (log10 mmHg) (via eChemPortal).
SCCOCCOCCS [2,2'-[Ethane-1,2-diylbis(oxy)]diethanethiol] is reported with log VP -2.413 (log10 mmHg) (via eChemPortal).
Brc1ccc(Oc2c(Br)c(Br)c(Br)c(Br)c2Br)cc1Br [2,3,3',4,4',5,6-Heptabromodiphenyl Ether] is reported with log VP -9.456 (log10 mmHg) (via OCHEM).
CCOc1ccc(C(=O)O)cc1 [Benzoic acid, 4-ethoxy-] is reported with log VP -3.272 (log10 mmHg) (via eChemPortal).
CC(C)c1ccccc1C(=O)O [NoName_97] is reported with log VP -3.459 (log10 mmHg) (via OCHEM).
O=C(Cl)c1ccc2c(c1)C(=O)OC2=O [5-Isobenzofurancarbonyl chloride, 1,3-dihydro-1,3-dioxo-] is reported with log VP -3.771 (log10 mmHg) (via eChemPortal).
CC(=O)c1ccc(O)cc1 [4-Hydroxyacetophenone] is reported with log VP -4.771 (log10 mmHg) (via eChemPortal).
Clc1ccc(-c2c(Cl)cccc2Cl)cc1Cl is reported with log VP -4.165 (log10 mmHg) (via OCHEM).
CCCCCCC(O)CCCCCCCCCCC(=O)O (centres undefined) [12-Hydroxyoctadecanoic acid] is reported with log VP -6.715 (log10 mmHg) (via eChemPortal).
CCCCCCC(CCCC)C(=O)O (centres undefined) [Octanoic acid, 2-butyl-] is reported with log VP -4.268 (log10 mmHg) (via eChemPortal).
C=C(C)C(=O)OC(C)(C)C [tert-Butyl methacrylate] is reported with log VP 0.745 (log10 mmHg) (via eChemPortal).
CC(=O)O[C@@H]1CCCC[C@@H]1C(C)(C)C (relative stereo) [cis-2-tert-Butylcyclohexyl acetate] is reported with log VP -1.137 (log10 mmHg) (via eChemPortal).
CC(C)c1cc(C(C)C)cc(C(C)C)c1 [1,3,5-Triisopropylbenzene] is reported with log VP -2.319 (log10 mmHg) (via eChemPortal).
CO[Si](CC[Si](OC)(OC)OC)(OC)OC [2,7-Dioxa-3,6-disilaoctane, 3,3,6,6-tetramethoxy-] is reported with log VP -1.924 (log10 mmHg) (via eChemPortal).
CC(=O)NNC(C)=O [N,N'-Diacetylhydrazine] is reported with log VP -5.87 (log10 mmHg) (via eChemPortal).
Clc1cc(Cl)c(-c2ccc(Cl)c(Cl)c2Cl)c(Cl)c1 [2,2',3,4,4',6'-Hexachlorobiphenyl] is reported with log VP -5.025 (log10 mmHg) (via OCHEM).
CC(O)CO.CCCCN(CCO)CCCC.O=C(O)/C=C\C(=O)O is reported with log VP -5.634 (log10 mmHg) (via eChemPortal).
Cc1ccc(S(=O)(=O)N=C=O)cc1 [p-Toluenesulphonyl isocyanate] is reported with log VP -3.727 (log10 mmHg) (via eChemPortal).
O=C(O)c1cccc([N+](=O)[O-])c1 [3-Nitrobenzoic acid] is reported with log VP -4.435 (log10 mmHg) (via eChemPortal).
CC1CC(OC(=O)c2ccccc2O)CC(C)(C)C1 (centres undefined) [3,3,5-Trimethylcyclohexyl salicylate] is reported with log VP -3.98 (log10 mmHg) (via eChemPortal).

The 4 highest values of log VP among the entries above:

For CCN(C)C [N,N-Dimethylethylamine] the data give log VP 2.691 (log10 mmHg) (via eChemPortal).
For FC(F)(F)COC(F)(F)C(F)(F)C(F)(F)F [1,1,1,2,2,3,3-Heptafluoro-3-(2,2,2-trifluoroethoxy)propane] the data give log VP 2.424 (log10 mmHg) (via ICF).
For COCC(F)(F)C(F)F [1,1,2,2-tetrafluoro-3-methoxypropane] the data give log VP 2.022 (log10 mmHg) (via ICF).
For CCO[Si](C)(CCl)OCC [(Chloromethyl)(diethoxy)methylsilane] the data give log VP 1.276 (log10 mmHg) (via eChemPortal).

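These are experimental values that the OPERA curators gathered from public databases to train and test their QSAR models. A listed value is a point estimate from one report or more. Method and conditions are not stated for these values. Where a salt, mixture or single isomer is drawn, the source does not say that exactly this form was tested. Some entries may be limits or estimates that an upstream database listed as plain numbers.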